Target: Dopamine receptor

Cc1ccc(S(=O)(=O)NCCCCN2CC[C@@H]3C(C2)c2cc(F)ccc2N3c2ccc(F)cc2)cc1.Cl (some centres not stated)
IC50: 27 nM

Cl.O=C(NCCCCN1CC[C@@H]2C(C1)c1cc(F)ccc1N2c1ccc(F)cc1)c1ccccc1 (some centres not stated)
IC50: 19 nM
